Target: Cholinesterases; ACHE & BCHE (Homo sapiens) (UniProt P06276+P22303)
Assay: Selectivity index, ratio of IC50 for AChE (unknown origin) to BChE (unknown origin)
Format: protein assay

The chains behind the UniProt entries cited, without tags or fusion partners. Where a name states a change or a piece, a line headed by the entry shows the natural chain unless it says otherwise.
UniProt P06276, whole entry, looked up: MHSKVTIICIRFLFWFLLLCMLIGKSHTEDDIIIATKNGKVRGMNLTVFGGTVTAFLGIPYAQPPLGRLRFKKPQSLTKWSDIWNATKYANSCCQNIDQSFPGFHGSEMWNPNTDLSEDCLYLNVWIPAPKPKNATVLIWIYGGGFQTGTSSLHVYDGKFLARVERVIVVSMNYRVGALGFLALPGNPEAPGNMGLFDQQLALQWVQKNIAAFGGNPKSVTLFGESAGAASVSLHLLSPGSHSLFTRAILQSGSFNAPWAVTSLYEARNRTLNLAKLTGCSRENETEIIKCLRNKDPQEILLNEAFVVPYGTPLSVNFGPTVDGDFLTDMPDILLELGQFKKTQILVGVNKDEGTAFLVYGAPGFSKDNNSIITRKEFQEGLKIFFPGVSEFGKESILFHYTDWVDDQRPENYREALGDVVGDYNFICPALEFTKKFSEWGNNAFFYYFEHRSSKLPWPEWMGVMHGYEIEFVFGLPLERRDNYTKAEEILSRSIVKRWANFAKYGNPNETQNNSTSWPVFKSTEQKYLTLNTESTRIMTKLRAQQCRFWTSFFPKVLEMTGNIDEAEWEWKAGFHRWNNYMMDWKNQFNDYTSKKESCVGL
UniProt P22303: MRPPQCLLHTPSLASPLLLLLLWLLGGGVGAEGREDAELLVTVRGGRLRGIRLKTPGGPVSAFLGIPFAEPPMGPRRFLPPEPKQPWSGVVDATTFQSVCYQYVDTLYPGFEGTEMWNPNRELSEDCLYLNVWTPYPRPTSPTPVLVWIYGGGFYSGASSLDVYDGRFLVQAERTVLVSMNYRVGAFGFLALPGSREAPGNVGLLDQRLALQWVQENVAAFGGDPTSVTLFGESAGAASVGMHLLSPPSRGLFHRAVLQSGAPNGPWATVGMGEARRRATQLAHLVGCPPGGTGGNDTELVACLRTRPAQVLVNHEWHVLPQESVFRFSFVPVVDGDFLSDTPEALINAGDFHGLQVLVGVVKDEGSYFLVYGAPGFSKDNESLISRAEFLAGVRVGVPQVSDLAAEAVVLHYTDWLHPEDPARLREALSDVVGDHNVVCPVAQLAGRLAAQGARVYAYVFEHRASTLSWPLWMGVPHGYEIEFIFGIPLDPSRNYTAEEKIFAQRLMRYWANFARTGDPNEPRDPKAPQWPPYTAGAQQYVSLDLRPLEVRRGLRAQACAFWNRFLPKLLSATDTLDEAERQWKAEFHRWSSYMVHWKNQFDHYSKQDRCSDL

SMILES: Cc1ccccc1NC(=O)Oc1ccc2c(c1)[C@]1(C)CCO[C@@H]1O2
- Ratio IC50: > 1300

Reference: ChEMBL document CHEMBL5214927, “Recent advance on carbamate-based cholinesterase inhibitors as potential multifunctional agents against Alzheimer's disease” (Eur J Med Chem, 2022)
